Values quoted from earlier work as cited in article PMC6702104 (Bioorganic & medicinal chemistry letters, 2019).

Settings: human plasma, 37 °C; cited from earlier work

Substance: acetoxylethyl ester of tranexamic acid
- half-life time of hydrolysis: 6 to 12 min
